Inhibition data for 19 compounds are collected here from PubChem BioAssay AID604 (The Scripps Research Institute Molecular Screening Center, 2007).

By UniProt entry, the sequences of proteins in these tests, tags left out. Where a name states a change or a piece, a line headed by the entry shows the natural chain unless it says otherwise.
UniProt O75116: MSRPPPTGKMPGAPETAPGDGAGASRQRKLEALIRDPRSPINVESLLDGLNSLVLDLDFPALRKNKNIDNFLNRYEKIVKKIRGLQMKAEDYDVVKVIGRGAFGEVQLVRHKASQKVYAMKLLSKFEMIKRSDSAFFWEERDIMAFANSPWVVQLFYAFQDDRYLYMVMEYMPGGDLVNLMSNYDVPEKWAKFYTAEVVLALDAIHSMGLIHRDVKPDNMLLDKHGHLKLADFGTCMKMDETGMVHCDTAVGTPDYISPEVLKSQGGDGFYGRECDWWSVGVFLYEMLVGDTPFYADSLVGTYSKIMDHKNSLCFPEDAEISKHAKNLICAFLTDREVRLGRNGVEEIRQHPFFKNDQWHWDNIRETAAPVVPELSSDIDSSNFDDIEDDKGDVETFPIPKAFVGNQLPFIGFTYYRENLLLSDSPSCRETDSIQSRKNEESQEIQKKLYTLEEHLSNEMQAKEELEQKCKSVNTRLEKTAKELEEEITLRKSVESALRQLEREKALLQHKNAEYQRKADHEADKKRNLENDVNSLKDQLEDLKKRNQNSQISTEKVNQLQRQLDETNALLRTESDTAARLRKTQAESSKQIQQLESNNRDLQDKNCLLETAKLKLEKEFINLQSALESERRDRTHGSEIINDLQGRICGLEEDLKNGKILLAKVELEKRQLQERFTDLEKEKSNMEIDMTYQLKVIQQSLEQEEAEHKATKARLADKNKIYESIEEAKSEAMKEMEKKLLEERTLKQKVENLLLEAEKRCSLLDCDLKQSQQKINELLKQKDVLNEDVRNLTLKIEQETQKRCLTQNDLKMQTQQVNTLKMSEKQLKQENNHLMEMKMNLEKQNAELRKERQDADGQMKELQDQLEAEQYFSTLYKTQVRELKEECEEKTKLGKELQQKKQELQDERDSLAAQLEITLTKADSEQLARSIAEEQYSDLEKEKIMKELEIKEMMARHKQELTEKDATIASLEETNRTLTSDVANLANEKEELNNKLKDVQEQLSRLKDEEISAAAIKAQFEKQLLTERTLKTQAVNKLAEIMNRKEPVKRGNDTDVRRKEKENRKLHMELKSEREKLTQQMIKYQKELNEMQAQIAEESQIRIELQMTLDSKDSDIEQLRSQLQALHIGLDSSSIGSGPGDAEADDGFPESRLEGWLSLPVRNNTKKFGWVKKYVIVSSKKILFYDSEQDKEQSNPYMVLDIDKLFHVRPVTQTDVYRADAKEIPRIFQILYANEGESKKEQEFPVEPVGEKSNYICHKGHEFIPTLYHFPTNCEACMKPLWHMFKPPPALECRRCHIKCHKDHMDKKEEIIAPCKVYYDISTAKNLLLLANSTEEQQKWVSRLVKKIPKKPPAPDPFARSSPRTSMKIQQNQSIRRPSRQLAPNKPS

What is called inhibition is the drop in the measured response relative to a control, in per cent.

SMILES strings stand for the structures. The list shows a part of the results, in another mix than the full data. The source made the active and inactive calls.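 Rule for the calls: active = inhibition above the screen-wide mean inhibition plus 3 SD (cut at about 18% in these data); inactive = the rest.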

The target in the assay is Rho-associated protein kinase 2 (Homo sapiens) (UniProt O75116). In words: ROCK2 enzymatic activity blockers – biochemical, high-throughput, luminescence, primary screen (AID 604).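 Note: plate controls were DMSO wells for no effect and Y-27632 control wells after no-enzyme background subtraction for full effect.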 To be noted: purified ROCK2, Kinase-Glo ATP depletion luminescence; at 6 µM; active compounds read high. A general note: In Kinase-Glo more light means more ATP remaining.
`O=P1(Nc2nc3ccc(Cl)cc3s2)COc2ccccc2O1` (centres undefined): the inhibition was inactive: -0.6%.
The result for `O=C(OC1CN2CCC1CC2)c1cccc(Cl)c1` (centres undefined) reads inactive: -3%.
In the case of `c1nnnn1CCn1cnnn1`, the inhibition was inactive: -5.2%.
The result for `O=P(Nc1nccs1)(c1ccccc1)c1ccccc1` reads inactive: 6.5%.
Under `CCc1nc2c(n1)c1c(non1O)c1c2no[n+]1[O-]` stands inactive: -1.1%.
`Cc1c2non([O-])c-2c(C)[n+](=O)[n+]1[O-]`: the inhibition was inactive: 1.3%.
Under `O=C(OC1CN2CCC1CC2)C12CC3CC(CC(C3)C1)C2` (centres undefined) stands inactive: -1.9%; under `O=C(COc1ccccc1)OC1CN2CCC1CC2` (centres undefined), inactive: -10.3%.
On to `COP1(=S)c2c(C)nn(CCC#N)c2N=C(c2ccc(F)cc2)N1C` (centres undefined), for which the inhibition is inactive: -0.8%.
Under `Clc1n[nH]nc1-c1nn[nH][15n]1` stands inactive: -4.2%; under `O=P1(Nc2ccccn2)COc2ccccc2OC1`, inactive: 3%.
Take `Cc1ccc(OCC(=O)OC2CN3CCC2CC3)cc1` (centres undefined): the inhibition is inactive: 7.8%.
The result for `O=P1(Nc2ccc(Br)cn2)COc2ccccc2OC1` reads inactive: 2.4%.
In the case of `O=P1(Nc2ncccn2)COc2ccccc2OC1`, the inhibition was inactive: 5.8%.
The result for `Cc1nn(-c2ccccc2)c2c1P(=O)(N1CCOCC1)N(C)C(c1ccccc1)=N2` (centres undefined) reads inactive: 7.8%; that for `CCOP1(=S)c2c(C)nn(CCC#N)c2N=C(c2ccc(F)cc2)N1C` (centres undefined), inactive: 5.5%; that for `CCOP1(=S)c2c(C)nn(CCC#N)c2N=C(c2ccccc2F)N1C` (centres undefined), inactive: 1.8%.
The result for `O=P(Nc1nccs1)(c1ccccc1)c1nc2ccccc2s1` (centres undefined) reads inactive: 2.8%; that for `Cc1cccc(OCC(=O)OC2CN3CCC2CC3)c1` (centres undefined), inactive: 6.1%.
